Values of other authors, collected in patent publication US4874795A, “Composition for delivery of orally administered drugs and other substances” (priority 1986, dated 1989).

Settings: in vivo; cited from earlier work

phosphatidyl choline
effect of excess on lipid absorption: reduce lipid absorption
